Screens from PubChem.
miR-21 reporter = miR-21 reporter, rising signal | 340,000 tested, under 10 active | AID 2288 | HeLa miR-21 FLuc reporter, luciferase, 48 h | Potency, µM (titrated, usually from 38.3 µM), for inactives: at the highest dose reporter change, positive = more light; active = well fitted rising curve with a large enough effect; inconclusive = small, poorly fitted or top-dose-only effect; inactive = no such curve, though single readings can be large or run the other way;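 further: % of control where 0% means no effect; miR-21 action dims this reporter so a rising signal means less miR-21 action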
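HeLa cells endogenously expressing miR-21, stably carrying CMV-driven firefly luciferase with a downstream miR-21 binding site, 2000 cells/well. Titrations up to approximately 40 uM, 48 hours; luciferase luminescence read.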
Nrf2 block = inhibitors of Nrf2 signaling; A549 ARE-Fluc reporter, luciferase luminescence, 18-24 h; Potency, µM (doses to about 46 µM), for inactives: top-dose activity change, negative = inhibition, actives largely listed as inhibitors; 2.1% of 360,000 active; AID 504444; also: potency is read from the fitted curve at half-maximal effect; % is scaled to controls: 0 for no effect and ±100 for the full control effect; nearly all actives have a fitted effect of over 60% in size
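Quantitative HTS in A549 cells stably bearing an antioxidant response element-firefly luciferase construct. Inhibition of Nrf2-driven transcription was scored by luminescence after 18-24 h of compound exposure at 37 °C.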
IL2 activator = IL-2 activation | 0.065% of 360,000 active | activation, % (series mostly up to about 46 µM) | IL-2 activation reporter assay, cell-based qHTS; stimulated with anti-CD3/CD4/CD28 beads; in transgenic mouse T cells | AID 652025; in the data active = activation above about 50%; inconclusive = mostly about 30% to 49%; also: 0% is about no effect
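Unstimulated transgenic mouse T cells; 60-min compound exposure; bead-based TCR/CD4/CD28 stimulation; 18 h culture, 37 degrees C; dual fluorescence (EGFP, DsRed) plate cytometry.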
Nrf2 activator = activates Nrf2 signaling | Potency, µM (titrated, usually from 46.1 µM), without a hit: at the top dose activation, most hits filed as activators | AREc32 ARE-luciferase reporter (MCF7-derived line), luminescence, 24 h | 0.31% of 410,000 active; also: potency is read from the fitted curve at half-maximal effect; % of control where 0% means no effect; nearly all actives have a fitted effect of over 65% in size
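AREc32_Fluc, 1000 cells/well, OPTI-MEM + 5% FBS, o/n 37 deg C 5% CO2; 23 nL cpd by pin tool, 24 hr; Steady-Glo 30 min RT, luminescence.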
ClpP mod = qHTS Assay for Activators of ClpP | 1.9% of 340,000 active | purified B. subtilis ClpP, FRET peptide cleavage, 20 min | Potency, µM (top dose mostly 57.5 µM), inactives show top-dose activity change, negative = active | AID 651965, 2013; active = well fitted falling curve with a large enough effect; inconclusive = small, poorly fitted or top-dose-only effect; inactive = no such curve, though single readings can be large or run the other way; also: potency is read from the fitted curve at half-maximal effect; the source files actives as falling curves though it sought activators and does not explain the sign; nearly all actives have a fitted effect of over 65% in size
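FRET quenching reversal measured ClpP activation: 10 microg/mL B. subtilis ClpP at pH 8 with the FRET-FV decapeptide, read at 430 nm after 320 nm excitation. The 20-min minus 0-min signal was scaled between DMSO/no-enzyme wells and ADEP (5.8 microM final).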
A549 viability = A549 cytotoxicity, counter-screen for Nrf2 inhibitors | A549 ARE-Fluc cells, CellTiter-Fluor viability, 18-24 h | Potency, µM (doses to about 46 µM), for inactives: at the highest dose activity change, negative = cytotoxicity, actives largely listed as inhibitors | 0.16% of 390,000 active | AID 504648; also: potency is read from the fitted curve at half-maximal effect; % is scaled to controls: 0 for no effect and ±100 for the full control effect
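A549 ARE_Fluc cells in 5% FBS OPTI-MEM were exposed to compounds in concentration-response for 18-24 h at 37 deg C. Viability was read by CellTiter-Fluor fluorescence (Ex 405/Em 525) after 30 min, before the luciferase read.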
Starred values were filed as active, the others as inactive; ? = inconclusive; / = no result; ! = repeats disagree. Most compounds without a hit are left out; they make up all but 3.7% or so of the library. Unless noted, calls follow the shape of the dose curve; as a rule, active = well fitted curve in the direction sought with a large enough effect; inconclusive = small, poorly fitted or top-dose-only effect, or another doubt; inactive = no such curve, though single readings can be large; an effect the other way counts as inactive or inconclusive.

SMILES | miR-21 reporter | Nrf2 block | IL2 activator | Nrf2 activator | ClpP mod | A549 viability
COc1ccc(CCNC(=O)c2cc(C3CC3)nc3c2cnn3C(C)C)cc1OC | / | -15% | 2 | 0% | -4% | 8%
CCNC(=O)c1cccc(NC(=O)c2cc(C3CC3)nc3c2cnn3C(C)C)c1 | / | 18µM* | -2 | 0% | / | -11%
Cc1nc2n(c(=O)c1CCN1CCC(c3noc4cc(F)ccc34)CC1)CCC[C@@H]2O | / | / | / | / | -1% | /
Cc1cc(C)c2c(=O)cc(C(=O)Nc3sc4c(c3C(=O)NCc3ccccc3)CCCC4)oc2c1 | -5% | 9% | / | -1% | 1% | -2%
COc1ccc(C(=O)C[n+]2cc(Br)cc(Br)c2)cc1 | / | / | / | / | -1% | /
Cc1ccc(C(=O)c2ccc(O)cc2)cc1C | -37% | 15% | -1 | 3% | -6% | 1%
Cc1ccc(C(=O)c2cccc(N)c2)cc1C | 23% | 5.8µM* | 0 | -2% | 0% | 0%
Cn1nc(CC(=O)NC2CCCCCC2)c2ccccc2c1=O | 9% | 18µM* | -5 | 0% | -5% | -4%
Cn1nc(CC(=O)NC2CCCCC2)c2ccccc2c1=O | 2% | ? | -2 | -1% | -2% | 2%
CC(C)NC(=O)Cn1c(SCC(=O)NC2CCCC2)nc2ccccc21 | 0% | 7% | -1 | 0% | -1% | -6%
CC(=O)NCCn1c(SCC(=O)NC2CCCCC2)nc2ccccc2c1=O | 0% | -20% | -1 | 0% | 32µM* | 3%
CC(C)Cn1c(SCC(=O)NC(=O)NC2CCCC2)nc2ccccc21 | 13% | 18µM* | -1 | 3% | 0% | ?
Cc1ccc(SC[C@H](Cc2ccccc2)N2CC[C@@H](C(C)(C)C)CCC2=O)cc1 | / | / | / | / | -4% | /
CCOc1cc(C(=S)N2CCOCC2)ccc1OS(=O)(=O)c1ccc(NC(C)=O)cc1 | 24% | 9.2µM* | -3 | 1% | -1% | -15%
CCOc1cc(C(=S)N2CCOCC2)ccc1OS(=O)(=O)c1ccc(OC)cc1 | 10% | ? | -3 | 0% | / | -2%
CC(=O)Nc1ccc(S(=O)(=O)Oc2ccc(C(=S)N3CCCCC3)cc2)cc1 | 7% | 21µM* | -1 | 1% | 4µM* | -17%
COCCNC(=O)c1c(-c2ccccc2)c(-c2ccccc2)nn(C)c1=O | -7% | ? | / | 2% | 1% | 4%
Cc1ccc(-c2nnc(Nc3ccc(O)cc3)c3ccccc23)cc1S(=O)(=O)N1CCCCC1 | 3% | -16% | / | 2% | -1% | -23%
Cc1nn2c(N3CCN(c4ccccn4)CC3)cc(C(C)C)nc2c1-c1ccccc1 | -3% | -16% | 1 | 0% | 28µM* | /
CCc1ccccc1N1C(=O)N(Cc2ccc(C#N)cc2)c2ccccc2S1(=O)=O | 15% | / | / | 1% | -2% | 0%
COc1ccc(-c2nc(CNS(=O)(=O)c3ccccc3)cs2)cc1 | 5% | ? | / | 1% | -7% | 1%
COc1ccc(-c2nc(CC(=O)O)cs2)cc1OC | -13% | / | / | / | / | /
COc1cccc(-c2nc(CC(=O)O)cs2)c1OC | -10% | -16% | -1 | 0% | 13µM* | -1%
COc1cccc(-c2nc(CCl)cs2)c1OC | -30% | 5% | -1 | 8% | -3% | -3%
COc1ccc(-c2nc(CC(=O)O)cs2)cc1 | -3% | 10% | -1 | 0% | 22µM* | 0%
CCCCOc1ccc(S(=O)(=O)NCc2csc(-c3ccc(OC)cc3)n2)cc1 | 1% | -8% | / | 1% | 13µM* | 10%
COc1ccc(-c2nc(CCNC(=O)c3ccccc3)cs2)cc1OC | 12% | / | / | 3% | 25µM* | 0%
O=C(N1CCc2cc([S+](=O)([O-])N3CCN([S+](=O)([O-])c4c(F)cccc4F)CC3)ccc2C1)C(F)(F)F | / | 11% | / | / | / | 2%
Ic1ccc(/C=C2\C=Cc3ccccc32)cc1 | / | / | / | / | 0% | /
CCn1c(=O)c([N+](=O)[O-])c(N2CCSCC2)c2ccccc21 | 14% | 16µM* | -1 | 0% | 1% | -8%
Cn1c(=O)c([N+](=O)[O-])c(N2CCSCC2)c2ccccc21 | -12% | -16% | 0 | 0% | 1% | -12%
CC(=O)c1c(C)[nH]c(C(=O)COc2ccc3ccc(=O)oc3c2)c1C | / | ? | 0 | 3% | 32µM* | 1%
CCOC(=O)c1cc(S(=O)(=O)N2CCN(c3ccccc3F)CC2)[nH]n1 | ? | / | / | -1% | 3% | -2%
Cc1ccc2cc3c(N)c(C(=O)Nc4c(C)[nH]c(=O)[nH]c4=O)sc3nc2c1 | 2% | 17% | 21 | 3% | 16µM* | 0%
O=C1CCCN1c1ccc(S(=O)(=O)NCCOc2ccccc2)cc1 | -1% | 13µM* | -4 | 0% | -5% | -11%
Cc1cc(N2CCCC2=O)cc(C)c1S(=O)(=O)NCCOc1ccc(C(C)(C)C)cc1 | 24% | ? | -1 | 0% | 0% | -16%
CCC(Oc1ccc(F)cc1)C(=O)Nc1nc(-c2ccc(F)cc2)ns1 (stereo not drawn) | ? | 16µM* | / | -1% | 0% | ?
Cc1cc(N)n2nc(-c3ccccc3)cc2n1 | -12% | ? | -2 | 8% | 28µM* | 1%
COc1ccc(-c2cc(-c3ccccc3)nc(Cl)n2)cc1OC | 18% | ? | -3 | 1% | / | 1%
Cc1ccc(-c2cc3nc(-c4ccccc4)cc(NCCCO)n3n2)cc1 | / | / | -3 | 4% | 4% | /

4 structures already listed, ordered by length of the SMILES, highest first.
SMILES | miR-21 reporter | Nrf2 block | IL2 activator | Nrf2 activator | ClpP mod | A549 viability
CCOC(=O)c1cc(S(=O)(=O)N2CCN(c3ccccc3F)CC2)[nH]n1 | ? | / | / | -1% | 3% | -2%
CCC(Oc1ccc(F)cc1)C(=O)Nc1nc(-c2ccc(F)cc2)ns1 (stereo not drawn) | ? | 16µM* | / | -1% | 0% | ?
Cc1ccc(-c2cc3nc(-c4ccccc4)cc(NCCCO)n3n2)cc1 | / | / | -3 | 4% | 4% | /
O=C1CCCN1c1ccc(S(=O)(=O)NCCOc2ccccc2)cc1 | -1% | 13µM* | -4 | 0% | -5% | -11%

Random excerpt: two compounds from above
SMILES | miR-21 reporter | Nrf2 block | IL2 activator | Nrf2 activator | ClpP mod | A549 viability
CCOC(=O)c1cc(S(=O)(=O)N2CCN(c3ccccc3F)CC2)[nH]n1 | ? | / | / | -1% | 3% | -2%
Cc1cc(N)n2nc(-c3ccccc3)cc2n1 | -12% | ? | -2 | 8% | 28µM* | 1%

Carrying on.
SMILES | miR-21 reporter | Nrf2 block | IL2 activator | Nrf2 activator | ClpP mod | A549 viability
Cc1ccc(-c2cc3nc(-c4ccccc4)cc(N)n3n2)cc1 | -43% | 12% | 1 | 3% | 25µM* | -1%
Cc1ccc(-c2cc3nc(-c4ccc(Br)cc4)cc(N)n3n2)cc1 | -16% | -26% | 6 | 4% | 28µM* | 2%
FC(F)(F)c1cc(-c2ccccc2)nc2cc(-c3ccc(Br)cc3)nn12 | -3% | 23% | / | 1% | -6% | -4%
Cc1ccc(-c2cc(-c3ccccc3)nc(Cl)n2)cc1 | -4% | -20% | -3 | 9% | 28µM* | 12%
Cc1cc[n+](CCC2CCCCC2)cc1 | / | / | / | / | -1% | /
CSc1nc(N)n2nc(-c3ccccc3)cc2n1 | -44% | ? | -1 | 7.9µM* | / | 0%
Cc1ccc(-c2cc(N)n3nc(-c4ccc(C)cc4)cc3n2)cc1 | -6% | -7% | -4 | 0% | 13µM*! | 3%
CCc1ccc(NC(=O)Cc2c(C(=O)O)c(C)cn2C)cc1 | -3% | / | / | 2% | 1% | 1%
CC1CCN(S(=O)(=O)c2ccc3[nH]ccc3c2)CC1 | 5% | / | / | 2% | -3% | 12%
CCOc1ccc(NC(=O)CSc2nc3nc(C)c(Cc4ccccc4)c(C)n3n2)cc1 | 3% | / | / | 0% | 0% | 0%
